# The whole screen tested about 390,000 compounds, of which about 17,000 (4.4%) were called active. All entries are inconclusive by the source's own rule. Clear calls are listed elsewhere. Calls come from the whole dose curve; as a rule, active = well fitted inhibition curve with a large enough effect; inconclusive = small, poorly fitted or top-dose-only effect; inactive = no such curve, though single readings can be large or run the other way.
# Chains of the proteins cited; added tags and fusions are not shown. Lines headed by an entry give the natural chain unless they say otherwise; changes in a name come on top.
# UniProt O75164: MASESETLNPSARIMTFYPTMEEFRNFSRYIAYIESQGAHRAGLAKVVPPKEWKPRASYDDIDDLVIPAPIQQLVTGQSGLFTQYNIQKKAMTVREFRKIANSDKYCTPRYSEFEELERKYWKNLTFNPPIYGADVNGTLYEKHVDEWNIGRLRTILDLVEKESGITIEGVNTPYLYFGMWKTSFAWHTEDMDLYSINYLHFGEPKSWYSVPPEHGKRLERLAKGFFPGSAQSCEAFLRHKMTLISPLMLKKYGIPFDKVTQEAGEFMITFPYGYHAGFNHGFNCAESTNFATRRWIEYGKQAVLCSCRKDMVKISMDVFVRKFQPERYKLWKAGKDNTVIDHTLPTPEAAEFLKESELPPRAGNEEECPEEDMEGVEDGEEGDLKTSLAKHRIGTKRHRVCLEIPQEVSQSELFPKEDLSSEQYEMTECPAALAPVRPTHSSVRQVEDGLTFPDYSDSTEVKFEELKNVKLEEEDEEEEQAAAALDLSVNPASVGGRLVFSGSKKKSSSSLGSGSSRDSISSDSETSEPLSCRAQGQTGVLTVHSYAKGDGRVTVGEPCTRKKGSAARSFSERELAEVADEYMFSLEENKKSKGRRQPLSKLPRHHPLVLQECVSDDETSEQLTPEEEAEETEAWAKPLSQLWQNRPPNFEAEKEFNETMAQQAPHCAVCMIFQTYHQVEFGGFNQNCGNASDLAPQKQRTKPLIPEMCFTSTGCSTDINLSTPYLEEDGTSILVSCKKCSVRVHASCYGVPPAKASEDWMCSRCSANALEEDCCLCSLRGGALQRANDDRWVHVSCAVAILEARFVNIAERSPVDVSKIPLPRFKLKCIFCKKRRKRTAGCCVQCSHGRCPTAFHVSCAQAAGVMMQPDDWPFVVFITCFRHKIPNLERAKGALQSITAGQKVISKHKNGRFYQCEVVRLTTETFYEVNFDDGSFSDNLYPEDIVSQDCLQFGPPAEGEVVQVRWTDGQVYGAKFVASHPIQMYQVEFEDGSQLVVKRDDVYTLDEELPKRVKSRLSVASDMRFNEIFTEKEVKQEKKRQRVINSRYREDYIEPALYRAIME
# Target: Lysine-specific demethylase 4A (Homo sapiens) (UniProt O75164)
# Assay: qHTS Assay for Inhibitors of JMJD2A-Tudor Domain; note: nearly all actives have a fitted effect of over 50% in size
# Details: AlphaScreen JMJD2A-Tudor / H3K4me3 peptide binding; activity change, negative = inhibition: at 114 µM (top of the series)
# % is set by controls: 0 for no effect and ±100 for the full control effect; potency is the fitted concentration of half-maximal effect.
Structure (SMILES),Potency,"activity change, negative = inhibition"
c1nnnn1CCn1cnnn1,inconclusive: 89.1 µM,
CC(=O)NC(SC(=S)N(C)C)C(Cl)(Cl)Cl (configuration not stated),inconclusive: 89.1 µM,
COc1ccc(N)c([N+](=O)[O-])c1[N+](=O)[O-],inconclusive: 79.4 µM,
O=c1c2cc([N+](=O)[O-])ccc2[nH]c2c([N+](=O)[O-])cc([N+](=O)[O-])cc12,inconclusive: 11.2 µM,
c1ccc(-c2nn[nH]n2)c(-c2nn[nH]n2)c1,inconclusive: 5620 µM,
N#C/C(=C\c1ccc(N(CCBr)CCBr)cc1)C(N)=O,inconclusive: 79.4 µM,
O=[N+]([O-])c1cc([N+](=O)[O-])c(CCNc2ccccc2)c([N+](=O)[O-])c1,inconclusive: 25.1 µM,
Cc1cc(SC(NC=O)C(Cl)(Cl)Cl)ncn1 (configuration not stated),,inconclusive: -100%
O=P(Nc1ccccn1)(c1cccc2ccccc12)c1cccc2ccccc12,inconclusive: 39.8 µM,
O=[N+]([O-])c1cc([N+](=O)[O-])c(-c2ccn[nH]2)s1,inconclusive: 50.1 µM,
O=[N+]([O-])c1cc(Oc2ccc([N+](=O)[O-])cc2C(F)(F)F)cc([N+](=O)[O-])c1,inconclusive: 44.7 µM,
CN(CCCl)Cc1cc(Cl)c(NC2=NCCN2)c(Cl)c1,inconclusive: 89.1 µM,
